Reference: patent US8067243B2 (priority 2008, dated 2011)

Assays:
[1] = human, in vivo
[2] = in vivo, cited from earlier work
[3] = in vivo; cited from earlier work

CN1CC[C@]23c4c5ccc(O)c4O[C@H]2C(=O)CC[C@H]3[C@H]1C5 [Hydromorphone]
Result (urine concentration) [1]: 214 ng/mL
detection of hydromorphone by LC/MS/MS after an oral dose of hydrocodone ([2]; po): up to 4 days
detection of free drug in urine by LC/MS/MS after administration [2]: up to 4 days
dose eliminated as conjugated hydromorphone [3]: 36%
dose eliminated as free hydromorphone [3]: About 6%
